# How the values were obtained:
# Amino acid sequences for entries named in this document (tags omitted). Residues count along the entry.
# UniProt Q99683, 649-946: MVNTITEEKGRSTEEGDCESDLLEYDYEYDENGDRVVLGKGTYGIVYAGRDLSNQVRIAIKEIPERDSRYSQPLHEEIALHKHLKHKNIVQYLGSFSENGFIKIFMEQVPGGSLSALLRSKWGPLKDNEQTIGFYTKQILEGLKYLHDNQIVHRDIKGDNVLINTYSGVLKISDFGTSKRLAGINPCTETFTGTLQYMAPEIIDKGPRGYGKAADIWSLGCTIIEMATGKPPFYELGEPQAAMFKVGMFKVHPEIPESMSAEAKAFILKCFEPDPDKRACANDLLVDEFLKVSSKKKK
# GST-hASK1 = GST-hASK1 (Homo sapiens (Human), UniProt Q99683); assay: ASK1 TR-FRET assay; type: biochemical; conditions: 5 nM GST-hASK1, 100 μM ATP, 2 μM STK Substrate 3
# Method: The protein kinase activity of 5 nM GST-hASK1(Life Technologies PV4011) was assayed with 100 μM ATP and 2 μM of HTRF biotinylated STK Substrate 3 (CisBio Kit 62ST3PEJ), at ambient temperature in 25 mM Hepes, pH 7.5, 50 mM NaCl, 10 mM MgCl2, 0.02% Brij-35, 1 mM DTT, and 1% DMSO.
# After a 10 minute pre-incubation, ASK1 protein kinase activity was initiated by addition of 10 μL of 300 μM ATP.
# [1] = molecular target: ASK1 T838 auto phosphorylation in HEK-293T cells (Homo sapiens (Human), UniProt Q99683); assay: ASK1 (AUTO PHOS T838) assay, MSD format; type: cell-based
# Method: The plates were incubated at 37° C. overnight. Media on plates was changed to OPTI-MEM, serum free media and cells were transfected with 9 μg of ASK1-V5 tagged full length plasmid using Lipofectamine 2000 (Invitrogen) and the plates were incubated at 37° C. overnight. Cells were trypsinized, counted on Nexcellometer and plated into 96 well tissue culture plates with 100,000 cells/well and 200 μL media. Cells were incubated for 4 hr at 37° C. then ASK1 compounds were added using a HP 300e. Compounds were tested at 20 μM with 3 fold, 10 point dilution points then incubated for 1 hr at 37° C. A lysis buffer (Cell Signaling) was prepared with protease and phosphatase inhibitor and maintained at 4° C. until use. Media from cells was discarded and 120 μL of cold lysis buffer was added to the cells, the plate was shaken 4° C. for 1 hr. Lysate was mixed using Apricot liquid handler; aspirating up and down 16 times at high speed using 50 μL volume. […] Plates were then incubated on a plate shaker overnight at 4° C. […] Plates were immediately read on a MSD Instrument Reader where chemoluminecense signal was measured. Data was analyzed using Graph Pad or Genedata, the data was normalized and plotted, % activity versus log of compound concentration. […]
smiles,measurement,setting,value
"O=C1Nc2cccc(n2)-c2nncn2CCCCOc2ccc(-c3ccccn3)cc21 [Example 25, 5^5-(Pyridin-2-yl)-1^4H-6-oxa-3-aza-2(2,6)-pyridina-1(3,4)-triazola-5(1,2)-benzenacyclodecaphan-4-one]",IC50,GST-hASK1,< 100 nM
same,IC50,[1],1 to 10 µM
